Data published in patent US6906058B2.
pIC50: −log10 of the molar value.

Protein sequences, listed by entry. Tags and fused reporters are not part of them.
UniProt Q12908, whole entry: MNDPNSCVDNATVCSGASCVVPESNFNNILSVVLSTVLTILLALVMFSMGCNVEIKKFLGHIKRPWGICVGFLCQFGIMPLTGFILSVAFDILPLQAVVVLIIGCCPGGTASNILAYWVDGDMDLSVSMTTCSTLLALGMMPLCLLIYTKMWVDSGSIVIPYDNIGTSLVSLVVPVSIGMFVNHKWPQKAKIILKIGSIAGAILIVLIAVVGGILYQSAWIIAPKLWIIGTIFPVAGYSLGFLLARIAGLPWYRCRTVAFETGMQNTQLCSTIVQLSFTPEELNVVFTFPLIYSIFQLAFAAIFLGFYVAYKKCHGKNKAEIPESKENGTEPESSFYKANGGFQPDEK

Target: IBAT (Homo sapiens, UniProt Q12908)
Assay: in vitro test assay for the effect on bile acid uptake in IBAT-transfected cells
Description: These properties may be assessed, for example, using an in vitro test assay for studying the effect on bile acid uptake in IBAT-transfected cells (Smith L., Price-Jones M. J., Hugnes K. T. and Jones N. R. A.; J Biomolecular Screening, 3, 227-230) or in vivo by studying the effect on radiolabelled bile acid absorption in mice/rats (Lewis M. C., Brieaddy L. E. and Root C., J., J Lip Res 1995, 36, 1098-1105).

CCCCC1(CC)CN(c2ccccc2)c2cc(Br)c(OCC(=O)NCCCS(=O)(=O)O)cc2S(=O)(=O)C1 (stereo not shown)
pIC50: 5.68
